In patent publication US6521619B2, “Aryl phenylcyclopropyl sulfide derivatives and their use as cell adhesion inhibiting anti-inflammatory and immune suppressive agents” (Icos Corporation, priority 2000, dated 2003):
Read-outs that look alike come from different tables or passages of the source.

Sequences of proteins named here, by UniProt entry; tags and fusion partners are left off. Residues count along the entry.
UniProt P20701, 26-1170: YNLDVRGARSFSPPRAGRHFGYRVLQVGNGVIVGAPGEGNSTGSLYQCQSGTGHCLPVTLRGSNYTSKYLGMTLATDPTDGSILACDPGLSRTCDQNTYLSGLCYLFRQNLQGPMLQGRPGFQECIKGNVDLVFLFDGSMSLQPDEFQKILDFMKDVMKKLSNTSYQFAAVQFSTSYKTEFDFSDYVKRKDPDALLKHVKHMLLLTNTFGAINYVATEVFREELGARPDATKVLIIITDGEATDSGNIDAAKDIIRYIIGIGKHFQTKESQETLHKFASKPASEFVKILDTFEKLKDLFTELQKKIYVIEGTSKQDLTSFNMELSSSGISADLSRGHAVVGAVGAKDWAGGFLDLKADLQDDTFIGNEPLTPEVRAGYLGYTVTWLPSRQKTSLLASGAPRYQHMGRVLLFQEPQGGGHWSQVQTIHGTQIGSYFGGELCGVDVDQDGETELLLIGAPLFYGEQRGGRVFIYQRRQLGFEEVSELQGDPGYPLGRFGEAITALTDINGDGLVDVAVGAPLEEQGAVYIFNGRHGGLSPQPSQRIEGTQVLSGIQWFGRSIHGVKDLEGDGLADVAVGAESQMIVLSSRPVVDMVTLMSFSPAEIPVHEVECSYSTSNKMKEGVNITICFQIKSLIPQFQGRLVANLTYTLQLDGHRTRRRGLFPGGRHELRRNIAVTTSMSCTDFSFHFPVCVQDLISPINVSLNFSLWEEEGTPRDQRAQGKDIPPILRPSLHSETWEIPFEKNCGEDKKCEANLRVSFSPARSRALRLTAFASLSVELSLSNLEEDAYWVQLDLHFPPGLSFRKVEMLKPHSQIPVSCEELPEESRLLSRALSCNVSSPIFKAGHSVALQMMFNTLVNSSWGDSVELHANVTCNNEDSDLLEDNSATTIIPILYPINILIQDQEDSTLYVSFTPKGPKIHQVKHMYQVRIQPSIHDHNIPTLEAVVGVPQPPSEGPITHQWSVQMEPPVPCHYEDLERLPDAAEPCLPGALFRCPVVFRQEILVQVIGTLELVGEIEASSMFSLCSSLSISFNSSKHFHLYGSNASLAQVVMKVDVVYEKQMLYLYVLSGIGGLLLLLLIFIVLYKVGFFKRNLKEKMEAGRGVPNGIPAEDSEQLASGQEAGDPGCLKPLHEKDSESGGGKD

Molecular target: T1, ICAM-1/LFA-1 interaction (recombinant LFA-1, biotinylated recombinant ICAM-1/Ig) (Homo sapiens, UniProt P20701)
T1 construct: Recombinant LFA-1 (100 mL of 0.7 mg/ml, ICOS Corporation) in D-PBS is then added to each well
Test: ICAM-1/LFA-1 Biochemical Interaction Assay (46A)
Format: binding

## O=C(O)CCc1ccccc1Sc1ccc(C2CC2C(=O)NCCCN2CCCC2=O)cc1C(F)(F)F (racemic) [Example 6, (±)-(2-(2-carboxyethyl)phenyl)[2-trifluoromethyl-4-(trans-(2-((3-(1-pyrrolidin-2-onyl)-prop-1-ylamino)carbonyl)cycloprop-1-yl)phenyl]sulfide]
  inhibition at 4 µM: 90%

## O=C(NCCCN1CCCC1=O)C1CC1c1ccc(Sc2ccccc2N2CCOCC2)c(C(F)(F)F)c1 (racemic) [Example 7, (±)-(2-Morpholin-1-ylphenyl)[2-trifluoromethyl-4-(trans-(2-((3-(1-pyrrolidin-2-onyl)-prop-1-ylamino)carbonyl)cycloprop-1-yl)phenyl]sulfide]
@ 4 μM compound
  inhibition at 4 µM: 93%
